Experimental findings from PubChem BioAssay AID624304 (Sanford-Burnham Center for Chemical Genomics, 2012) are described below.

This is a selection; strong and weak results do not stand in their true shares. Active and inactive are the calls of the source.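 How the source made its calls: active means interference check ratio from 0.5 to 1.5 plus GFP to RFP signal ratio inhibition reaching or exceeding a fixed threshold (cut at about 30% in these data, passing the limit was not always enough); inactive means the rest.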

The assay is described as follows: suppressors of acrylamide-induced Pgst-4::GFP reporter in worms, primary screen, SKN-1 inhibitor project, whole organism, uHTS, GFP/RFP fluorescence ratio, strain VP596 (AID 624304). The note with it: C. elegans VP596 Pgst-4::GFP/RFP ratio, 24 h, at 21.8 µM, active compounds read high.
By inhibition is commonly meant the relative decrease from the control value, in per cent. Consider `CCOP(=O)(NC(=NC(C)c1ccccc1)NC(C)c1ccccc1)OCC` (stereo unspecified), for which the inhibition is inactive: -28.8%.
